The values that follow come from PubChem BioAssay AID1274 (Emory University Molecular Libraries Screening Center, 2008).

Amino acid sequences for entries named in this document (tags omitted).
UniProt P14598, whole entry: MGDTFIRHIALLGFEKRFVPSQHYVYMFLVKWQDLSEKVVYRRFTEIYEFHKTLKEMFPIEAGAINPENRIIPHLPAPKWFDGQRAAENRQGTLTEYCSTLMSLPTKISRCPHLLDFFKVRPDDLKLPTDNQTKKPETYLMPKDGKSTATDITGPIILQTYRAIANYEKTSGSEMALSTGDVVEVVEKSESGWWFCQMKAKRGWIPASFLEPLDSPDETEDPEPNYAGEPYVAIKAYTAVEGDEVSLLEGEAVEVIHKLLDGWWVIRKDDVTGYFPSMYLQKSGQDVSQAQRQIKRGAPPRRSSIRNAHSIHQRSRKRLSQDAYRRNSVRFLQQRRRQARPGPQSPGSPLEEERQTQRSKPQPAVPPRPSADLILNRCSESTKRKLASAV

Only a part is listed here, and it is no random draw. Activity calls are given as the source filed them.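 How the source made its calls: active means inhibition above about 30% (limit read from the data); inactive means the rest.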

In the assay the target is Neutrophil cytosol factor 1 (Homo sapiens) (UniProt P14598). Kind of assay: p47phox/p22phox peptide binding inhibitors, primary screen, biochemical, uHTS, NADPH oxidase regulatory subunit (AID 1274).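 Further: 0% = p47phox with labelled peptide and 100% = labelled peptide alone.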 To be noted: fluorescence polarization, 2 h, at 24.7 µM, active compounds read high.
With `Cc1nc2ccc3ccccc3c2s1.O=[N+]([O-])c1cc([N+](=O)[O-])c(O)c([N+](=O)[O-])c1`, the inhibition was inactive: 0.55%.

On to `CP(=O)(Oc1ccccc1)OC(c1ccccc1)C(F)(F)F` (stereo not drawn), for which the inhibition was inactive: -9.85%.

With `Cc1cccc(C)c1OP(C)(=O)Nc1ccc(SC(F)(F)F)cc1` (stereo not drawn), the inhibition was inactive: -11.3%.

As for `CP(=O)(Nc1ccc(SC(F)(F)F)cc1)Oc1ccc(Cl)cc1` (stereo not drawn), the inhibition was inactive: -3.72%.

Take `Cc1cc(C)cc(OP(C)(=O)Nc2ccc(SC(F)(F)F)cc2)c1` (stereo not drawn): the inhibition is inactive: 10.3%.

Take `CCc1ccc(OP(C)(=O)N2CCN(c3ccc([N+](=O)[O-])cc3)CC2)cc1` (stereo not drawn): the inhibition was inactive: 0.89%.

With `CP(=O)(NC(=O)Nc1ccccc1)Oc1ccccc1` (stereo not drawn), the inhibition was inactive: -3.56%.

With `CCOC(=O)c1ccc(NP(C)(=O)Oc2ccc(OC)cc2)cc1` (stereo not drawn), the inhibition was inactive: -0.63%.

Turning to `CCOP(C)(=S)SCC(=O)NC(C)C(=O)O` (stereo not drawn), the inhibition is inactive: -15.2%.

Regarding `CP(=O)(Nc1ccccn1)Oc1ccc(Cl)cc1` (stereo not drawn), the inhibition is inactive: -2.69%.

In the case of `CP(=S)(Nn1cnnc1)Oc1ccccc1` (stereo not drawn), the inhibition was inactive: -1.74%.

For `CP(=O)(Nc1ccccc1Br)Oc1ccccc1` (stereo not drawn), the inhibition was inactive: -21.4%.

`COc1ccccc1OP(C)(=O)Nc1ccccc1` (stereo not drawn): the inhibition is inactive: 0.8%.

For the molecule `O=[N+]([O-])c1ccc2c(c1)C=Nc1ccccc1O2`, the inhibition is inactive: -13.4%.

`Cc1cccc(C)c1OP(C)(N)=O` (stereo not drawn): the inhibition was inactive: -1.3%.

With `CC(C)(C)c1ccc(OP(C)(=O)Nc2ccc(SC(F)(F)F)cc2)cc1` (stereo not drawn), the inhibition is inactive: -11.1%.

Turning to `Cc1ccc(NP(C)(=O)Oc2ccccc2)c(C)c1` (stereo not drawn), the inhibition is inactive: 4.03%.

`COc1ccccc1OP(C)(=O)Nc1ccc(C)cc1` (stereo not drawn): the inhibition was inactive: -0.13%.

In the case of `CCOC(=O)c1ccc(NP(C)(=O)Oc2ccccc2)cc1` (stereo not drawn), the inhibition was inactive: -8.29%.

Take `Cc1cc(C)cc(OP(C)(N)=O)c1` (stereo not drawn): the inhibition was inactive: -14.2%.

`COc1ccc(OP(C)(=O)Nc2cccc(F)c2)cc1` (stereo not drawn): the inhibition was inactive: -0.5%.

As to `COc1ccccc1OP(C)(=O)Nc1cc(Cl)ccc1C` (stereo not drawn), the inhibition is inactive: 4.4%.

In the case of `CCN(CC)CCCOC(=O)C(O)(c1ccccc1)c1ccccc1`, the inhibition was inactive: 4.47%.
